According to article PMC10221217 (Viruses, 2023):
Entries after “also recorded” stand apart in the source; their conditions may differ.

The chains behind the UniProt entries cited, without tags or fusion partners.
UniProt P61073, whole entry: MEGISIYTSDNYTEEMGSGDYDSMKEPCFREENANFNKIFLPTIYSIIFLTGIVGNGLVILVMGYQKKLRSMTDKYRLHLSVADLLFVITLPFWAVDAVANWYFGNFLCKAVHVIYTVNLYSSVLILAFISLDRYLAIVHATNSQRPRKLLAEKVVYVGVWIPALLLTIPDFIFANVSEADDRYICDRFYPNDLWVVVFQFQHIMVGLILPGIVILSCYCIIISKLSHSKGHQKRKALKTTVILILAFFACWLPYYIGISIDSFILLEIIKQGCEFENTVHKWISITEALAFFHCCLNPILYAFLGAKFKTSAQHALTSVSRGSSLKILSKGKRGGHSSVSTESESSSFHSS

Legend:
[1] = target: T1, CXCR4 (Homo sapiens, UniProt P61073); assay: CXCR4 competitive binding assay (anti-CXCR4 mAb 12G5)
T1 construct: expressed in transfected cells

[2] = test system: CCR5; assay: CCR5 competitive binding assay; conditions: antibody C-45523, 4 μg/mL; CCR5 cell line; 40 min at 4 °C; IgG-FITC, fluorescence 485EX/535EM; maraviroc as positive control; three independent experiments

Compound	comparison of CXCR4 binding of L- and D-peptide (in words) ([1]; anti-CXCR4 antibody 12G5 competitive binding)	CXCR4 selectivity over CCR5 (in words) ([1]; concluded from CXCR4 and CCR5 competitive binding)	competitive binding to CCR5 [2]
CC[C@H](C)[C@@H]1NC(=O)[C@H](CO)NC(=O)[C@H](CC(C)C)NC(=O)[C@H](CCCNC(=N)N)NC(=O)[C@H](CCCNC(=N)N)NC(=O)[C@H](CCCNC(=N)N)NC(=O)[C@H]([C@@H](C)O)NC(=O)[C@H](CC(N)=O)NC(=O)[C@H](CC(N)=O)NC(=O)[C@H](CC(N)=O)NC(=O)[C@@H]2CCCN2C(=O)[C@H](CCCNC(=N)N)NC(=O)[C@H]([C@@H](C)O)NC(=O)[C@@H](NC(=O)[C@H](CC(N)=O)NC(=O)[C@@H](NC(=O)[C@@H](NC(=O)[C@@H](NC(=O)[C@H](CO)NC(=O)[C@@H](N)CCC(=O)O)C(C)C)C(C)C)[C@@H](C)CC)CSSC[C@@H](C(=O)N[C@@H](CC(N)=O)C(=O)N[C@H](C(=O)N[C@@H](CO)C(N)=O)[C@@H](C)CC)NC(=O)[C@H](Cc2c[nH]cn2)NC(=O)[C@H](C)NC(=O)[C@H](CCC(N)=O)NC(=O)[C@H](CCCNC(=N)N)NC(=O)[C@H]([C@@H](C)CC)NC(=O)[C@H](CC(=O)O)NC(=O)CNC(=O)[C@H]([C@@H](C)CC)NC(=O)[C@H]([C@@H](C)CC)NC(=O)[C@H](CC(N)=O)NC(=O)[C@H](CCCNC(=N)N)NC(=O)[C@H](CCCNC(=N)N)NC(=O)[C@H](C)NC(=O)[C@H](Cc2ccc(O)cc2)NC(=O)[C@H](Cc2ccccc2)NC(=O)[C@H](C)NC(=O)[C@H](CCCNC(=N)N)NC(=O)CNC(=O)[C@@H]2CCCN2C(=O)CNC1=O [L-V3 loop peptide]	comparable binding recognition to the CXCR4 receptor	CXCR4 binding was selective	Lack of CCR5 competitive binding; also recorded: Neither peptides displayed any competitive binding to CCR5
CC[C@@H](C)[C@H]1NC(=O)[C@@H](CO)NC(=O)[C@@H](CC(C)C)NC(=O)[C@@H](CCCNC(=N)N)NC(=O)[C@@H](CCCNC(=N)N)NC(=O)[C@@H](CCCNC(=N)N)NC(=O)[C@@H]([C@H](C)O)NC(=O)[C@@H](CC(N)=O)NC(=O)[C@@H](CC(N)=O)NC(=O)[C@@H](CC(N)=O)NC(=O)[C@H]2CCCN2C(=O)[C@@H](CCCNC(=N)N)NC(=O)[C@@H]([C@H](C)O)NC(=O)[C@H](NC(=O)[C@@H](CC(N)=O)NC(=O)[C@H](NC(=O)[C@H](NC(=O)[C@H](NC(=O)[C@@H](CO)NC(=O)[C@H](N)CCC(=O)O)C(C)C)C(C)C)[C@H](C)CC)CSSC[C@H](C(=O)N[C@H](CC(N)=O)C(=O)N[C@@H](C(=O)N[C@H](CO)C(N)=O)[C@H](C)CC)NC(=O)[C@@H](Cc2c[nH]cn2)NC(=O)[C@@H](C)NC(=O)[C@@H](CCC(N)=O)NC(=O)[C@@H](CCCNC(=N)N)NC(=O)[C@@H]([C@H](C)CC)NC(=O)[C@@H](CC(=O)O)NC(=O)CNC(=O)[C@@H]([C@H](C)CC)NC(=O)[C@@H]([C@H](C)CC)NC(=O)[C@@H](CC(N)=O)NC(=O)[C@@H](CCCNC(=N)N)NC(=O)[C@@H](CCCNC(=N)N)NC(=O)[C@@H](C)NC(=O)[C@@H](Cc2ccc(O)cc2)NC(=O)[C@@H](Cc2ccccc2)NC(=O)[C@@H](C)NC(=O)[C@@H](CCCNC(=N)N)NC(=O)CNC(=O)[C@H]2CCCN2C(=O)CNC1=O [D-V3 loop peptide]			Lack of CCR5 competitive binding; also recorded: Neither peptides displayed any competitive binding to CCR5
